Experimental data as given in PubChem BioAssay AID435028 (The Scripps Research Institute Molecular Screening Center, 2010).
Only a part is listed here, and it is no random draw. Activity calls are given as the source filed them.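 How the source made its calls: active means mean inhibition across triplicate wells above the cutoff set by the earlier primary insulin-degrading enzyme screen (cut at about 16% in these data); inactive means the rest.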

Protein sequences, listed by entry. Tags and fused reporters are not part of them.
UniProt P14735, whole entry, looked up: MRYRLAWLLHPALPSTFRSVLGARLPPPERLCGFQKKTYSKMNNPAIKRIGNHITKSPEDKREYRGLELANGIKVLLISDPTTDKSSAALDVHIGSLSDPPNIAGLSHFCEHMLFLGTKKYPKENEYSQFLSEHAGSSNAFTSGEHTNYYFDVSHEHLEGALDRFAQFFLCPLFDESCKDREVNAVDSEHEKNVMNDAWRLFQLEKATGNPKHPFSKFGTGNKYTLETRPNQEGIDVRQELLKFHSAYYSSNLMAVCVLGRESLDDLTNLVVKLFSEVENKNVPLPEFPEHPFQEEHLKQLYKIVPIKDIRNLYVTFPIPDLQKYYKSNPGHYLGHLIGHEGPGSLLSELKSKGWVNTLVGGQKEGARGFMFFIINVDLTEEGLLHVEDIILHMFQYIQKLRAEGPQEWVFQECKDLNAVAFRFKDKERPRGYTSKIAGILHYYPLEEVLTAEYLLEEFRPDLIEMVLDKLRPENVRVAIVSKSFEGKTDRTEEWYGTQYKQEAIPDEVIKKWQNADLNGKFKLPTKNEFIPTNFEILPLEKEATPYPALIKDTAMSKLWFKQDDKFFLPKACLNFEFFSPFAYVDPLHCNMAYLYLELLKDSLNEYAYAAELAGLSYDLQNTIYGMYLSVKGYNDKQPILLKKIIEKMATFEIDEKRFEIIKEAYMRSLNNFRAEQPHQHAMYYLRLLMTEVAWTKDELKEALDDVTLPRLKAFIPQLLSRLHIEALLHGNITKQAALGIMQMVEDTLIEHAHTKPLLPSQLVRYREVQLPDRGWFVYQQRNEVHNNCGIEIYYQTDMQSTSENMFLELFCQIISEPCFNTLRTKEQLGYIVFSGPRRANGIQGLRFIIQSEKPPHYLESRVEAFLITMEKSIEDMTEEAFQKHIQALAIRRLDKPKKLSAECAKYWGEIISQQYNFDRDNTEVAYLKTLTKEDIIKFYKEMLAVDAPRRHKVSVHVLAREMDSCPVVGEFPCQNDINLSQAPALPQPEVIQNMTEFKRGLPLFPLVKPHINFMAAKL

The compounds below were run against Insulin-degrading enzyme (Homo sapiens) (UniProt P14735) (assay: human IDE inhibitors in live cells, confirmation, fluorescence polarization, HEK cells, FAbetaB substrate (AID 435028;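 further: 0% = DMSO wells and 100% = 60 µM reference IDE inhibitor Ii1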)). Conditions: FAbetaB cleavage, at 5.59 µM, active compounds read high.
With `O=c1c2ccccc2[se]n1-c1ccccc1` the inhibition was active: 33.8%.
